This is an account of results in patent publication US6833443B1, “Gymnemic acid derivatives, process for the preparation thereof and use thereof as medicine” (Guilin Jiqi Pharmaceutical Co., Ltd., priority 1999, dated 2004).

In this assay the test system is hyperlipidemia rat. Put plainly: Effect of compound F on triglycerides and cholesterol in serum of hyperlipidemia rat. The assay is classed as in vivo. The settings on record: dose 100 mg/kg. The method, then:
Effect of compound F on the content of triglycerides and cholesterol in the serum of hyperlipidemia rat.
Male SD rats weighing 130-170 g were used. The normal group was given general feedstuff, and the other groups were given high-fat (1% cholesterol, 10% pig oil, 0.3% cholic acid, 0.2% methylthio imidazole and 88.5% normal feedstuff are made stuff by oneself). After the feedstuff is run for 14 days and the rats were forbidden to eat for 12 hours, the content of triglycerides and cholesterol in rat's serum was measured. Then, the rats were grouped randomly according to blood lipid value. The experiment group was given compound F (50, 100, 200 mg/kg.), the positive-control group was orally given clofibrate (100 mg/kg), and the control group was given distilled water. The volume of administration was, 10 ml/kg, lasting 10 days. Each group was given high-fat feedstuff in the first 5 days of giving drugs, and then general feedstuff in the next 5 days. Fasting of 11 hours is conducted before the last time of giving drugs. After giving drugs for 1 hour, blood was taken and the content of ester and cholesterol in the blood serum was measured.

In the case of `CCOC(=O)C(C)(C)Oc1ccc(Cl)cc1` [clofibrate], for the setting “10 days”, the “Total cholesterin, after administration” value is on record as 2.15 ± 0.76 mmol/L and the “triglycerides, after administration” value was found to be 2.72 ± 0.74 mmol/L. Also, under “baseline”, the “Total cholesterin, before administration” value amounted to 4.33 ± 0.51 mmol/L and the “triglycerides, before administration” value is 2.51 ± 0.77 mmol/L.
